{"sequences": {"note": "Protein sequences, listed by entry. Tags and fused reporters are not part of them.", "UniProt P34913, whole entry, looked up": "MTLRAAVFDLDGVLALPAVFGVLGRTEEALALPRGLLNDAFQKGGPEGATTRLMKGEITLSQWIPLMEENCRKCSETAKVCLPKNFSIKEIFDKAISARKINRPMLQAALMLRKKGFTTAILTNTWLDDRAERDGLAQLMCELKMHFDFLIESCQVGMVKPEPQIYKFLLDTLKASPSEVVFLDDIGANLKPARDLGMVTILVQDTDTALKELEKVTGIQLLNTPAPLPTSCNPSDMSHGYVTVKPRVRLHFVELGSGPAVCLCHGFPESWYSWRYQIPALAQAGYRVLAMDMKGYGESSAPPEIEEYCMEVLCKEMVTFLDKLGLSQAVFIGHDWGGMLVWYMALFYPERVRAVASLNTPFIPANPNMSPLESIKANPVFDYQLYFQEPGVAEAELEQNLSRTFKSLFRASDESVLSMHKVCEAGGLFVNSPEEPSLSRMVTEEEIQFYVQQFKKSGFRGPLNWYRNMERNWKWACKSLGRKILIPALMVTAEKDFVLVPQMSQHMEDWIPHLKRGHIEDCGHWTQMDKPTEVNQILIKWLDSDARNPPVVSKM"}, "source": "PubChem BioAssay AID707", "about": "(Columbia University Molecular Screening Center, 2007)", "note": "Only a part is listed here, and it is no random draw. Active and inactive are the calls of the source. Cut-off read from the data, not from the text of the source: active = inhibition above about 80%; inactive = the rest."}
{"molecular_target": "Bifunctional epoxide hydrolase 2 (Homo sapiens) (UniProt P34913)", "assay": "sEH enzyme activity blockers – biochemical, human sEH, primary screen (AID 707)", "conditions": "recombinant human sEH enzymatic activity assay; at 2 µM; stronger effect = higher value"}
{"smiles": "CC1CCN(C(=O)Oc2c(Cl)cc(Cl)c3cccnc23)CC1", "inhibition": "inactive: 8.3%"}
{"smiles": "CC(=O)N1C2C3N(C(C)=O)C1C1N(C(C)=O)C(C(N1C(C)=O)N3C(C)=O)N2C(C)=O", "inhibition": "inactive: -12.2%"}
{"smiles": "O=[N+]([O-])c1cccc2n[nH]nc12", "inhibition": "inactive: -3.4%"}
{"smiles": "CCc1nc2c(n1)c1c(non1O)c1c2no[n+]1[O-]", "inhibition": "inactive: 11.1%"}
{"smiles": "CCOP(=O)(Nc1ccccc1)OCC", "inhibition": "inactive: 8.8%"}
{"smiles": "CC(C)CC(=O)NC(Sc1ccc(Cl)cc1)C(Cl)(Cl)Cl", "note": "(configuration not stated)", "inhibition": "inactive: -2%"}
{"smiles": "Cc1c2non([O-])c-2c(C)[n+](=O)[n+]1[O-]", "inhibition": "inactive: 4.2%"}
{"smiles": "Oc1ccccc1CNc1ccccn1", "inhibition": "inactive: 15.7%"}
{"smiles": "CN1CCCC(OC(=O)C(c2ccccc2)c2ccccc2)C1", "note": "(configuration not stated)", "inhibition": "inactive: 8%"}
{"smiles": "COC(=O)c1cc2c(s1)N=C(c1ccccc1)N(C)P2(=O)N1CCOCC1", "note": "(configuration not stated)", "inhibition": "inactive: 5%"}
{"smiles": "CCC(=O)N1C2C3N(C(=O)CC)C1C1N(C(=O)CC)C(C(N1C(=O)CC)N3C(=O)CC)N2C(=O)CC", "inhibition": "inactive: 0.6%"}
{"smiles": "CCOC(=O)NC(Sc1ccccc1)C(Cl)(Cl)Cl", "note": "(configuration not stated)", "inhibition": "inactive: 0.6%"}
{"smiles": "O=P(Nc1nccs1)(c1ccccc1)c1ccccc1", "inhibition": "inactive: 5.3%"}
{"smiles": "c1nnnn1CCn1cnnn1", "inhibition": "inactive: 3.5%"}
{"smiles": "CC1(CBr)Cn2c(nc3ccccc3c2=O)S1", "note": "(configuration not stated)", "inhibition": "inactive: -6.8%"}
{"smiles": "O=P1(Nc2ccccn2)COc2ccccc2OC1", "inhibition": "inactive: 6.7%"}
{"smiles": "Clc1n[nH]nc1-c1nn[nH][15n]1", "inhibition": "inactive: 6.9%"}
{"smiles": "O=P1(Nc2ncccn2)COc2ccccc2OC1", "inhibition": "inactive: 3.6%"}
{"smiles": "Cc1ccc(OCC(=O)OC2CN3CCC2CC3)cc1", "note": "(configuration not stated)", "inhibition": "inactive: 20.7%"}
{"smiles": "Cc1nn(-c2ccccc2)c2c1P(=O)(N1CCOCC1)N(C)C(c1ccccc1)=N2", "note": "(configuration not stated)", "inhibition": "inactive: -14.9%"}
{"smiles": "O=[N+]([O-])c1ccc2c(c1)nnn2O", "inhibition": "inactive: 3%"}
{"smiles": "CCOP1(=S)c2c(C)nn(CCC#N)c2N=C(c2ccc(F)cc2)N1C", "note": "(configuration not stated)", "inhibition": "inactive: -3.9%"}
{"smiles": "Cc1cccc(OCC(=O)OC2CN3CCC2CC3)c1", "note": "(configuration not stated)", "inhibition": "inactive: -3.1%"}
{"smiles": "ClCCSc1nnc(-c2cccnc2)o1", "inhibition": "inactive: 13.5%"}
{"smiles": "CCN(CC)C(=S)SC(NC=O)C(Cl)(Cl)Cl", "note": "(configuration not stated)", "inhibition": "inactive: 11.3%"}
{"smiles": "CCC(C)N(CC(C)C)C(=S)SC(NC(C)=O)C(Cl)(Cl)Cl", "note": "(configuration not stated)", "inhibition": "inactive: 1.4%"}
{"smiles": "COP1(=S)c2c(C)nn(CCC#N)c2N=C(c2ccc(F)cc2)N1C", "note": "(configuration not stated)", "inhibition": "inactive: 2.1%"}
